Earlier results, collected in patent publication US10214540B2, “Compound having agonistic activity on somatostatin receptor, and use thereof for medical purposes” (ONO PHARMACEUTICAL CO., LTD., priority 2012, dated 2019).

Amino acid sequences for entries named in this document (tags omitted).
UniProt P30874, whole entry, species assumed: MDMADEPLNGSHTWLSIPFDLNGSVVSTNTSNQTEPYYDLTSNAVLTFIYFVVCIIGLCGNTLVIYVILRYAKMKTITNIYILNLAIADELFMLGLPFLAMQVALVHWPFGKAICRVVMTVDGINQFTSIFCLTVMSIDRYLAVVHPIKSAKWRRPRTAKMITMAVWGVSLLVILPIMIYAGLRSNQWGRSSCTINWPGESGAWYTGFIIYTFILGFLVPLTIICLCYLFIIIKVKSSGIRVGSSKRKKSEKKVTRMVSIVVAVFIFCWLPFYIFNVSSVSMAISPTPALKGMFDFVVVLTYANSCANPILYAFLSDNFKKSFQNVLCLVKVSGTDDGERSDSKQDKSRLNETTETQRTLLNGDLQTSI
UniProt P32745, whole entry, species assumed: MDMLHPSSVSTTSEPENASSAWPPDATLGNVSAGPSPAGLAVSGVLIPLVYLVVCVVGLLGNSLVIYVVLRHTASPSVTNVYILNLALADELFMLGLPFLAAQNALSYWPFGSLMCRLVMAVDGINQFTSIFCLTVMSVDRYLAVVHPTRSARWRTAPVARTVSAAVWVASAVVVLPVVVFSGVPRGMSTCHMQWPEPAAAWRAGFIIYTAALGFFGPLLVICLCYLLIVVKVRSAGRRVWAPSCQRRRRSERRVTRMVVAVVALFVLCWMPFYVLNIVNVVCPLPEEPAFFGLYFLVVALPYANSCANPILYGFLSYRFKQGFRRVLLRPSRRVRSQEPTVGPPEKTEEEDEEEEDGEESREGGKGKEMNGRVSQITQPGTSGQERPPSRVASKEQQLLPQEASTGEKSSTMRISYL
UniProt P35346, whole entry, species assumed: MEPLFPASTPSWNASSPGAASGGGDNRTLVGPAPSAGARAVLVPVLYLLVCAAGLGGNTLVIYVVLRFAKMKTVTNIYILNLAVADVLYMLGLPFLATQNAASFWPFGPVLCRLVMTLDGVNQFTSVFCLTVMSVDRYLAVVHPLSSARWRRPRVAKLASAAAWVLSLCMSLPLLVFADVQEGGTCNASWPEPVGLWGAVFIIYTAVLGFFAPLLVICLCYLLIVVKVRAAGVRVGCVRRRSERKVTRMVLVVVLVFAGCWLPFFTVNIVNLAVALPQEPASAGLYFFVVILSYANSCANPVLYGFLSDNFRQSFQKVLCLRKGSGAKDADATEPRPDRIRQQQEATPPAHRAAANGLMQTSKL
UniProt P30872, whole entry, species assumed: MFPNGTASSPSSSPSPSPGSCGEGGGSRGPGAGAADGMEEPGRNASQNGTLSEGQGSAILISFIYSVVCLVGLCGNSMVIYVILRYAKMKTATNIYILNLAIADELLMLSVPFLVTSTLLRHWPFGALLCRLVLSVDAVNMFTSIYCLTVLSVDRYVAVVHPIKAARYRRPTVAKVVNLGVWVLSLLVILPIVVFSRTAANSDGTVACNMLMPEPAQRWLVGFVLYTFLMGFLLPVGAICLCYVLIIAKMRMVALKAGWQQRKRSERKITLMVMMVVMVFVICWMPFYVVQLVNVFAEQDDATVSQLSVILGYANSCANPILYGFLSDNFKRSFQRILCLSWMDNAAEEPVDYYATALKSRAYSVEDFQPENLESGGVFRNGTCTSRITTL
UniProt P31391, whole entry, species assumed: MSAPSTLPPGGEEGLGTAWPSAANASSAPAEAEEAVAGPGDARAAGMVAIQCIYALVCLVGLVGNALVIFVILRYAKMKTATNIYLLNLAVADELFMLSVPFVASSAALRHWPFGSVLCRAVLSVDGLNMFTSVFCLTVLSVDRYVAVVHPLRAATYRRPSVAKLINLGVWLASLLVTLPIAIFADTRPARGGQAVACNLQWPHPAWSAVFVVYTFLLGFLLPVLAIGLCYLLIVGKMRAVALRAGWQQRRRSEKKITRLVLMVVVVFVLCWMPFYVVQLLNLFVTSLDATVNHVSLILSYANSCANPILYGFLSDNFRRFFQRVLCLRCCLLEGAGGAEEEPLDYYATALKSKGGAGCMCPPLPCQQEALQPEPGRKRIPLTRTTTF

How the values were obtained:
Details in all cases: reported in background art; cited from earlier work
[1] = molecular target: somatostatin receptor subtype 2 (SSTR2) (Homo sapiens, UniProt P30874)
[2] = molecular target: somatostatin receptor subtype 3 (SSTR3) (Homo sapiens, UniProt P32745)
[3] = molecular target: somatostatin receptor subtype 5 (SSTR5) (Homo sapiens, UniProt P35346)
[4] = molecular target: somatostatin receptor subtype 1 (SSTR1) (Homo sapiens, UniProt P30872)
[5] = molecular target: somatostatin receptor subtype 4 (SSTR4) (Homo sapiens, UniProt P31391)

Octreotide acetate
binding affinity to SSTR2 (in words) [1]: high affinity
binding affinity to SSTR3 (in words) [2]: moderate affinity
binding affinity to SSTR5 (in words) [3]: moderate affinity
binding to SSTR1 (in words) [4]: not to bind
binding to SSTR4 (in words) [5]: not to bind
